For this data set, the system named is tissues of hamsters with eye melanoma. Description: Distribution of carrier-free lead-203 tris in tissue at various times. The class given is in vivo, hamster. On the procedure: The ^203 Pb-tris as described herein was injected in a relatively large number of mice and hamsters which were tumor bearing animals.
Results from one such group of hamsters are given in Table I showing distribution of the lead-203 tris in percent uptake per gram of tissue at various times.
Distribution of Carrier-Free Lead-203 Tris in Percent Uptake per Gram
of Tissue at Various Times*
*Averages and standard deviations for an average of 8-17 hamsters per tim
group, except * data which represents results from 4 animals.

On to “Lead-203 tris-hydroxymethyl aminomethane”, for which the “Distribution, Brain” value is on record as 0.107 Percent Uptake per Gram of Tis (Time 1, 60 min); 0.067 Percent Uptake per Gram of Tis (Time 3, 180 min); 0.135 Percent Uptake per Gram of Tis (Time 6, 360 min); 0.139 Percent Uptake per Gram of Tis (Time 24, 1440 min); 0.067 Percent Uptake per Gram of Tis (Time 72, * 4 animals, 4320 min); 0.109 Percent Uptake per Gram of Tis (Time 144, 8640 min). In addition, the “Distribution, Gonads” value (Gonads, Time 72, 4320 min) is recorded as 0.135 Percent Uptake per Gram of Tis.
